Results taken from PubChem BioAssay AID485272 (The Scripps Research Institute Molecular Screening Center, 2010).
This is a selection; strong and weak results do not stand in their true shares. Activity calls are given as the source filed them.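 Rule for the calls: active = percent inhibition above a cutoff equal to the mean of all tested compounds plus 3 SD (cut at about 15% in these data); inactive = the rest.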

Amino acid sequences for entries named in this document (tags omitted).
UniProt Q9UM07, whole entry, looked up: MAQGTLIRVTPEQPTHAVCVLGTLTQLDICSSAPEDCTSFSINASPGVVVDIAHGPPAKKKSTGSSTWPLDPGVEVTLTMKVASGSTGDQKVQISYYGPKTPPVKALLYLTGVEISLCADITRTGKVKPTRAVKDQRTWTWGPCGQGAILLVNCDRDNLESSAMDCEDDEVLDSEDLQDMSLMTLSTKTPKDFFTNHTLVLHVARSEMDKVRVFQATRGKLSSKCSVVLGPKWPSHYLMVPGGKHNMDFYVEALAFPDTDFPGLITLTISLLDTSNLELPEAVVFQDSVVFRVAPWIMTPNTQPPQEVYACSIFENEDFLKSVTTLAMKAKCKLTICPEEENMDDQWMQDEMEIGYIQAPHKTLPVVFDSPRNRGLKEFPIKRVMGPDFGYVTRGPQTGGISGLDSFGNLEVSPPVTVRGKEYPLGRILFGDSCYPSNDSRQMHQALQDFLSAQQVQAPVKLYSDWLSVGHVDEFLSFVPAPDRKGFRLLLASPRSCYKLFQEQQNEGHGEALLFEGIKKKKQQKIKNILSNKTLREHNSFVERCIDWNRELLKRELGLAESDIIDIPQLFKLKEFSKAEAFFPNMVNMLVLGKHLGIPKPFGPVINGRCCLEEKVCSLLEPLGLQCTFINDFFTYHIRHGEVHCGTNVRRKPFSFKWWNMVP

Biological target: Protein-arginine deiminase type-4 (Homo sapiens) (UniProt Q9UM07)
Assay: protein arginine deiminase 4 enzyme blockade – biochemical, fluorescence polarization, 1536-well format, primary screen (AID 485272);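 note: 0% = PAD4 with RCA probe and DMSO and 100% = probe without PAD4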
Settings: recombinant PAD4, RCA probe fluorescence polarization; at 6.36 µM; hits give high values

Row | Structure (SMILES) | inhibition
1 | O=C(Nc1ccncc1[N+](=O)[O-])c1ccc([N+](=O)[O-])cc1[N+](=O)[O-] | inactive: -8.11%
2 | O=C(OC1CN2CCC1CC2)c1cccc([N+](=O)[O-])c1 (configuration not stated) | inactive: 5.79%
3 | CCOC(=O)c1ccc(NC(=O)C(C)(CCl)SC)cc1 (configuration not stated) | inactive: -3.95%
4 | CCC(C)N(CC(C)C)C(=S)SC(NC(C)=O)C(Cl)(Cl)Cl (configuration not stated) | inactive: -4.3%
5 | CCOC(=O)Nc1ccc([As](=O)(O)O)c(O)c1 | inactive: 3.99%
6 | Cc1cc(SC(NC(=O)c2ccccc2)C(Cl)(Cl)Cl)nc(C(C)C)n1 (configuration not stated) | inactive: 1.63%
7 | CCOC(=O)Nc1cccc([As](=O)(O)O)c1 | inactive: 0.31%
8 | Cc1cc(SC(NC=O)C(Cl)(Cl)Cl)ncn1 (configuration not stated) | inactive: -4.67%
9 | O=P(Nc1ccccn1)(c1cccc2ccccc12)c1cccc2ccccc12 | inactive: -3.43%
10 | O=C(Nc1cc([As](=O)(O)O)ccc1O)c1ccccc1 | inactive: 5.3%
11 | O=[N+]([O-])c1ncn(CCn2ncnc2[N+](=O)[O-])n1 | inactive: -2.62%
12 | CC(C)(C)C(=O)NC(Sc1ccncn1)C(Cl)(Cl)Cl (configuration not stated) | inactive: -0.19%
13 | O=[N+]([O-])c1cccc(NC2=NCC(CBr)S2)c1 (configuration not stated) | inactive: -0.4%
14 | COc1ccc(C2=NCC(CBr)S2)cc1 (configuration not stated) | inactive: -0.49%
15 | Cc1ccc(NP(=O)(Oc2ccccc2)Oc2ccccc2)nc1 | inactive: -6.08%
16 | O=[N+]([O-])c1cc([N+](=O)[O-])c(CCNc2ccccc2)c([N+](=O)[O-])c1 | inactive: -7.25%
17 | CCc1nc2c(n1)c1c(non1O)c1c2no[n+]1[O-] | inactive: 4.21%
18 | CC(=O)N1C2C3N(C(C)=O)C1C1N(C(C)=O)C(C(N1C(C)=O)N3C(C)=O)N2C(C)=O | inactive: 1.99%
19 | O=[N+]([O-])c1cccc2n[nH]nc12 | inactive: 1.22%
20 | CCN(/C(=N/P(=O)(N1CCOCC1)N1CCOCC1)N1CCOCC1)c1ccc(OC)cc1 | inactive: 0.34%
21 | Nc1ccc([As](=O)(O)c2ccc(N)cc2)cc1 | inactive: 5.61%

Row | Structure (SMILES) | inhibition
22 | C[N+]1=C2C=CC=CC=C2SC12C([N+](=O)[O-])=CC([N+](=O)[O-])=C[C-]2[N+](=O)[O-] (configuration not stated) | inactive: -2.43%
23 | CC1CCN(C(=O)Oc2c(Cl)cc(Cl)c3cccnc23)CC1 | inactive: 0.5%
24 | CC(C)=N/N=C(\N)N[N+](=O)[O-] | inactive: 2.74%
25 | CN(C)C(=O)OCCc1n(C)cc[n+]1C | inactive: -1.53%
26 | CN(C(=O)Cc1ccc(Cl)c(Cl)c1)[C@H]1CCCC[C@H]1N1CCCC1 | inactive: -0.93%
27 | Cc1ccc(N/C(=N/P(=O)(N2CCOCC2)N2CCOCC2)N2CCOCC2)cc1 | inactive: -1.44%
28 | NC(=O)c1cc([N+](=O)[O-])cc([N+](=O)[O-])c1N | inactive: -10.5%
29 | CN1CCCC(OC(=O)C(c2ccccc2)c2ccccc2)C1 (configuration not stated) | inactive: 0.47%
30 | Clc1ccc(Cl)c(NC2=NCC(CBr)S2)c1 (configuration not stated) | inactive: -4.78%
31 | COc1ccccc1OP(=O)(Nc1ccc(C)cn1)Oc1ccccc1OC | inactive: -1.88%
32 | Cc1ccc(OP(=O)(Nc2nccs2)Oc2ccc(C)cc2)cc1 | inactive: -1.8%
33 | Oc1ccccc1CNc1ccccn1 | inactive: -4.94%
34 | O=C(NC(Sc1ccncn1)C(Cl)(Cl)Cl)c1ccccc1 (configuration not stated) | inactive: -3.95%
35 | Cc1c2non([O-])c-2c(C)[n+](=O)[n+]1[O-] | inactive: 1.08%
36 | Nc1cc(N)c2nonc2c1[N+](=O)[O-] | inactive: -17.9%
37 | CC(C)CC(=O)NC(Sc1ccc(Cl)cc1)C(Cl)(Cl)Cl (configuration not stated) | inactive: -4.74%
38 | O=P(Nc1nc2ccc(Cl)cc2s1)(c1ccccc1)c1ccccc1 | inactive: -3.09%
39 | CC(=O)Nc1ccc([As](=O)(O)O)cc1 | inactive: -1.74%
40 | O=C(O)c1ccccc1[As](=O)(O)O | inactive: 13.7%
41 | Cc1cc(SC(NC(=O)c2ccc(F)cc2)C(Cl)(Cl)Cl)ncn1 (configuration not stated) | inactive: -0.5%
42 | CCOP(=O)(Nc1ccccc1)OCC | inactive: -0.3%

Row | Structure (SMILES) | inhibition
43 | CN(C(=O)Cc1ccc(Cl)c(Cl)c1)[C@H]1CCCC[C@@H]1N1CCCC1 | inactive: 1.35%
44 | Cc1ccc(NP(=O)(Oc2ccccc2F)Oc2ccccc2F)nc1 | inactive: -4.26%
45 | O=[N+]([O-])c1cc([N+](=O)[O-])c(CCN2CCOCC2)c([N+](=O)[O-])c1 | inactive: -8.64%
46 | CCN(N=Nc1nonc1N)c1nonc1N | inactive: 1.93%
47 | c1ccc(-c2nn[nH]n2)c(-c2nn[nH]n2)c1 | inactive: 1.05%
48 | CCOC(=O)NC(Sc1ccccc1)C(Cl)(Cl)Cl (configuration not stated) | inactive: -3.56%
49 | Cc1ccc(NP(=O)(Oc2cccc(C)c2)Oc2cccc(C)c2)nc1 | inactive: -0.01%
50 | O=C(NC1CCS(=O)(=O)C1)NP(=S)(Oc1ccccc1)Oc1ccccc1 (configuration not stated) | inactive: -3.85%
51 | CCNC(=S)/N=C(\N)N[N+](=O)[O-] | inactive: -3.07%
52 | O=C(OC1CN2CCC1CC2)c1ccccc1 (configuration not stated) | inactive: -7.02%
53 | CCC(=O)N1C2C3N(C(=O)CC)C1C1N(C(=O)CC)C(C(N1C(=O)CC)N3C(=O)CC)N2C(=O)CC | inactive: -1.31%
54 | COC(=O)c1cc2c(s1)N=C(c1ccccc1)N(C)P2(=O)N1CCOCC1 (configuration not stated) | inactive: -1.49%
55 | Cc1ccc(OP(=O)(Nc2ccccn2)Oc2ccc(C)cc2)cc1 | inactive: 2.54%
56 | CC(=O)NC(SC(=S)N(CC(C)C)CC(C)C)C(Cl)(Cl)Cl (configuration not stated) | inactive: -3.22%
57 | CC(NC(=O)COC(=O)C(O)(c1ccccc1)c1ccccc1)c1ccccc1 (configuration not stated) | inactive: 0.46%
58 | Cc1ccccc1OP(=O)(Nc1ccccn1)Oc1ccccc1C | inactive: -2.78%
59 | CN(C)C(=O)Oc1noc2ccccc12 | inactive: 0.66%
60 | O=P1(Nc2nc3ccc(Cl)cc3s2)COc2ccccc2O1 (configuration not stated) | inactive: 1.85%
61 | CCOc1ccc(C2=NCC(CBr)S2)cc1 (configuration not stated) | inactive: -0.65%
62 | CC(C)(C)C(=O)NC(Sc1ccccc1)C(Cl)(Cl)Cl (configuration not stated) | inactive: 0.73%
63 | Cc1ccccc1CN(C)C(=O)COC(=O)C(O)(c1ccccc1)c1ccccc1 | inactive: 1.16%

Row | Structure (SMILES) | inhibition
64 | C[C@H]1OP(=O)(Oc2ccccc2)C[C@@H]2O[C@@H]21 (some centres not stated) | inactive: -2.74%
65 | C[C@@H]1C=CCP(=O)(Oc2ccccc2)O1 (some centres not stated) | inactive: -1.89%
66 | CC(=O)c1ccc(N2CC2c2ccncc2)cc1 (configuration not stated) | inactive: 2.39%
67 | CC(=O)Nc1ccc([As](=O)(O)O)c(O)c1 | inactive: 2.1%
68 | CC(=O)Nc1ccc(Oc2c([N+](=O)[O-])cc([N+](=O)[O-])cc2[N+](=O)[O-])cc1 | inactive: -5.93%
69 | O=P(Nc1nccs1)(c1ccccc1)c1ccccc1 | inactive: 1.03%
70 | CC(C)C(=O)NC(Sc1ccccc1)C(Cl)(Cl)Cl (configuration not stated) | inactive: 0.06%
71 | c1nnnn1CCn1cnnn1 | inactive: -1.84%
72 | CN(C)C1(CNC(=O)c2ccc(Cl)c(S(N)(=O)=O)c2)CCCCC1 | inactive: -11.5%
73 | O=P(Nc1ccccn1)(c1ccc(Br)cc1)c1ccc(Br)cc1 | inactive: -3.42%
74 | O=P(Nc1nc2ccccc2s1)(c1ccccc1)c1ccccc1 | inactive: -0.02%
75 | C[C@H]1OP(=O)(Oc2ccccc2)[C@H](O)[C@H](O)[C@H]1N=[N+]=[N-] (some centres not stated) | inactive: 0.8%
76 | O=[As](O)(c1ccccc1)c1ccc(O)cc1 | inactive: 3.73%
77 | O=[N+]([O-])c1ncn(CCn2cnc([N+](=O)[O-])n2)n1 | inactive: 4.22%
78 | CC(=O)NC(SC(=S)N(C)C)C(Cl)(Cl)Cl (configuration not stated) | inactive: -0.35%
79 | O=[N+]([O-])c1ccc(O)c(/C=N/Nc2ccc([N+](=O)[O-])cc2[N+](=O)[O-])c1 | inactive: -1.52%
80 | O=C(OC1CN2CCC1CC2)c1cccc(Cl)c1 (configuration not stated) | inactive: 0.73%
81 | C(Cc1nn[nH]n1)Cc1nn[nH]n1 | inactive: -3.54%
82 | Nc1ccc([As](=O)(O)c2ccc([N+](=O)[O-])cc2)cc1 | inactive: 2.84%
